The values below are quoted from earlier work in patent US20070072181A1 (priority 2003, published 2007).

The test system of this series is suitable virus (e.g. encephalomyocarditis virus (EMC), vesicular stomatitis virus, Semliki forest virus). To be noted: cited from earlier work.

On to “IFN-α 2b: interferon alpha-2b, administered at 11.54 μg protein three times a week”, for which the specific activity is on record as 2.68×10^6 IU/mg.
